Literature values, collected in patent US20070281909A1, “Creatine phosphate prodrugs, compositions and uses thereof” (XenoPort, Inc., priority 2006, published 2007).

Conditions: in vivo; cited from earlier work

Nc1nc2ccc(OC(F)(F)F)cc2s1 [riluzole]
Extension of survival in ALS: about three months
